Antibody variant affinities, Ab-14 heavy chain, assay 1

The measurements come from Engelhart et al. 2022 (doi:10.1038/s41597-022-01779-4) through the FLAb antibody collection.

Antigen: PDVDLGDISGINAS, a 14-residue peptide of the SARS-CoV-2 spike HR2 region.

Parent scFv Ab-14: VH joined to VL by three GGGGS repeats. Changes lie in the heavy chain CDRs alone.
VH: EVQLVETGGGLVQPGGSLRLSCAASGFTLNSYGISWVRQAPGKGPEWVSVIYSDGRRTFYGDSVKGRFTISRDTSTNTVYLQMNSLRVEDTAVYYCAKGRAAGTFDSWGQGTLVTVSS
VL: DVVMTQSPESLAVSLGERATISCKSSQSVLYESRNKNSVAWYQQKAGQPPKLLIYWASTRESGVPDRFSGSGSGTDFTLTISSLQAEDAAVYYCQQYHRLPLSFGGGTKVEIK

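Phage display of a naive human antibody library on the peptide gave the parent. AAYL49 was designed without a model: most single CDR substitutions and a random sample of double and triple ones. AlphaSeq pools MATa yeast showing the antibodies with MATalpha yeast showing the peptide. After mating in shaken culture at 30 °C for 16 h, diploids were selected and their barcode pairs sequenced. A regression on co-assayed BCL2-family reference pairs converts the normalised counts of each replicate to an apparent Kd. Mating was done three times.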

Each variant is given by its three heavy chain CDRs, as the data file delimits them; those of the parent are GFTLNSYGIS, VIYSDGRRTFYGDSVK, GRAAGTFDS. All variants listed here change G26 of the VH, counted from its first residue. Each Kd is an estimate from the mating assay, the geometric mean of the replicates in which the pair was seen; lower is stronger. Where no diploid with the target was found in any replicate, the entry reads "not detected": below detection, most likely a poor binder, though not proof of it. Nonspecific signal, from three strains lacking the peptide, appeared in 15% of pairings of library AAYL49, centred on 11 µM (5% of these signals below 680 nM); values are not corrected for it. For each scFv, signals with the empty controls are counted beside the result. For reference, the parent read 4.4 nM as the reference entry and 13 µM (one replicate of three) as a member of this library.

| CDR-H1 | CDR-H2 | CDR-H3 | Kd (apparent) | detected | signal with controls |
|---|---|---|---|---|---|
| LFTENSYGIS | VIYSDGRRTFWGDSVK | GRAAGTFDS | 8.9 µM | 2 of 3 | 4 of 9 |
| CFTLNSYGIS | VIYNDTRRTFYGDSVK | GRAAGTFDS | not detected | 0 of 3 | 2 of 9 |
| DFTLNSYGIQ | VIRSDGRRTFYGDSVK | GRAAGTFDS | not detected | 0 of 3 | 1 of 9 |
| NFTLNSYGIS | VIYLDGRRTFYGDSVK | GRAAITFDS | not detected | 0 of 3 | 0 of 9 |
| TFTLNSYGIS | VIYSDSRRTFYGDSVK | GWAAGTFDS | not detected | 0 of 3 | 1 of 9 |
| DFTLNSYGIS | VIYPDCRRTFYGDSVK | GRAAGTFDS | not detected | 0 of 3 | 1 of 9 |
| NFTLNSYGIS | VFYSDGRRTFYGDSVK | GRAEGTFDS | 49 µM | 3 of 3 | 3 of 9 |
| DFTLNSYGNS | VIYSDGRRTFYGDYVK | GRAAGTFDS | not detected | 0 of 3 | 2 of 9 |
| EFTLNSYGIS | VIYSDGRATFYGDSVE | GRAAGTFDS | 26 µM | 1 of 3 | 3 of 9 |
| TFTLNSKGIL | VIYSDGRRTFYGDSVK | GRAAGTFDS | 20 µM | 2 of 3 | 1 of 9 |
| SFTLVSYTIS | VIYSDGRRTFYGDSVK | GRAAGTFDS | 25 µM | 1 of 3 | 0 of 9 |
| SFTLNSYGCS | VIYSDGRRTFYGDAVK | GRAAGTFDS | not detected | 0 of 3 | 0 of 9 |
| RFTLNSYGIS | VIYSFGRRTFYGDSVK | GRAAGTFDS | not detected | 0 of 3 | 3 of 9 |
| SFTLNSYGIS | VIYSDGRRTFYGDSVK | GRAWGTEDS | 560 nM | 3 of 3 | 1 of 9 |
| WFTLHSYGIS | VPYSDGRRTFYGDSVK | GRAAGTFDS | 18 µM | 2 of 3 | 3 of 9 |
| SFTLNSYGIS | VIYSWGRRTFYGDSGK | GRAAGTFDS | not detected | 0 of 3 | 1 of 9 |
| HFTLNSYHIS | VIYSDGRRTFYGDSVK | GRAAGTFRS | not detected | 0 of 3 | 0 of 9 |
| VFTLPSGGIS | VIYSDGRRTFYGDSVK | GRAAGTFDS | 87 nM | 3 of 3 | 4 of 9 |
| DFTLNSYGIS | VIYSDGRRTFHGDSVK | VRAAGTFDS | not detected | 0 of 3 | 0 of 9 |
| HFTLNSYGIS | VIYSDGRRTSYGDSVK | GRAAMTFDS | not detected | 0 of 3 | 1 of 9 |
| LFTLNSYGIS | VIYSDGRRTFYGLSVK | GRAAGTFDS | 5.3 µM | 3 of 3 | 2 of 9 |
| KFTLNSYRIS | VIYSDGRRTFYGHSVK | GRAAGTFDS | not detected | 0 of 3 | 0 of 9 |
| IFTLNSYGIS | VSYSDGRRTFYGDSVK | GRAAGTFDS | not detected | 0 of 3 | 0 of 9 |
| LFTLNSYGIS | VIYSDGRRTFYGDSVK | GRAAGSFDS | 43 µM | 3 of 3 | 3 of 9 |
| MFTLHSYGIS | VIYSDGRRTFYGDSVK | GRAAGIFDS | 120 µM | 1 of 3 | 3 of 9 |
| NFTLNSYGIS | HIYSDGRRTFYGDSVK | GRAAGTFDS | 4.5 µM | 2 of 3 | 4 of 9 |
| DFTLNSYGIS | VIVSDGRRTFYGDSVK | GRAAGTFDN | 18 µM | 1 of 3 | 1 of 9 |
| SFTLNSYGIS | VIYSDGRCTFYGDSVK | GRAAHTFDS | 36 µM | 1 of 3 | 6 of 9 |
| MFTLNSYGIS | VIYSDGRRTFYGDSVK | GPADGTFDS | 630 nM | 3 of 3 | 0 of 9 |
| NFTLNSYGIS | VIYSDGRRTFYGRSVK | GRAAGTFDS | 240 µM | 1 of 3 | 1 of 9 |
| FFTLNSYGIS | VIYSNGRCTFYGDSVK | GRAAGTFDS | 53 µM | 1 of 3 | 0 of 9 |
| MFLLNSYGIS | VIYSDGRRTFYGYSVK | GRAAGTFDS | 11 µM | 1 of 3 | 0 of 9 |
| IFTLNSYGIS | VIYSDIRRTLYGDSVK | GRAAGTFDS | not detected | 0 of 3 | 1 of 9 |
| MFTLNSYCIS | VIYSDGRRTFYGDSVK | GYAAGTFDS | not detected | 0 of 3 | 0 of 9 |
| TFTLNSYGIS | VIYSDGRRTFYGDSVK | GRAFGTFDS | not detected | 0 of 3 | 0 of 9 |
| EFTLNSYGIS | VIYSDGRRTFYGDSVM | GRAAGTNDS | 5.5 µM | 1 of 3 | 2 of 9 |
| EFTMNSYGIS | VIYSPGRRTFYGDSVK | GRAAGTFDS | not detected | 0 of 3 | 1 of 9 |
| VFTLNSYGIS | VIYSDGRVTFYGDSVK | GRAAPTFDS | not detected | 0 of 3 | 0 of 9 |
| PFTLNSYGIS | VIYSDGRRTFYGDSVK | GRDAGTCDS | 7.7 µM | 3 of 3 | 0 of 9 |
| SFTLNSYGIS | VIYSDCRRTFYGDSVK | GRAAGTFDS | not detected | 0 of 3 | 0 of 9 |
| KFTMNSYGIS | VIYSDGRRTFYGSSVK | GRAAGTFDS | 80 nM | 3 of 3 | 0 of 9 |
| PVTLNSYGIS | VIYHDGRRTFYGDSVK | GRAAGTFDS | 2.8 µM | 1 of 3 | 1 of 9 |
| DFTLNSIGIS | VIYVDGRRTFYGDSVK | GRAAGTFDS | not detected | 0 of 3 | 0 of 9 |
| KFTLNSYGIS | VIYSDGRRTFYGDWVE | GRAAGTFDS | 1.9 µM | 3 of 3 | 2 of 9 |
| TFTLNSYGIS | VIYSDGRRTFYGDSVK | KRAAGTYDS | 15 µM | 1 of 3 | 2 of 9 |
| DFTLNSYGIS | VIYSDGRRTFAGDSVK | GRAAGTADS | 1.3 µM | 1 of 3 | 2 of 9 |
| DWTLNSYGIS | VIYSDGRRTFYGYSVK | GRAAGTFDS | 9.9 µM | 2 of 3 | 0 of 9 |
| NFTFNSYGIS | VIYSDGRRTFYGDSVK | GRAAGTFDT | 100 nM | 3 of 3 | 3 of 9 |
| LFTLNSYGIS | EIYPDGRRTFYGDSVK | GRAAGTFDS | 27 µM | 1 of 3 | 2 of 9 |
| SFTLNSYGIM | VIYSDGRRTFYGDSVK | GRAAGTFDS | 12 µM | 1 of 3 | 1 of 9 |
| MFTLNSYGIS | VIYSDGRRQFYGDSVK | GRAAGWFDS | not detected | 0 of 3 | 0 of 9 |
| VFTLNFYGIS | VQYSDGRRTFYGDSVK | GRAAGTFDS | not detected | 0 of 3 | 1 of 9 |
| PFTLNSYGHS | VIYSDGRRTFYWDSVK | GRAAGTFDS | 4.2 µM | 1 of 3 | 2 of 9 |
| MFTLNSYGIS | VIYSNGRRTFYGDSVK | DRAAGTFDS | 1.5 µM | 2 of 3 | 2 of 9 |
| IFTLNFYGIS | VIYSDGRRTFYGDSVK | GRANGTFDS | 37 µM | 1 of 3 | 0 of 9 |
| QFTLNSYGIS | VAYSDGNRTFYGDSVK | GRAAGTFDS | not detected | 0 of 3 | 0 of 9 |
| CFTPNSYGIS | KIYSDGRRTFYGDSVK | GRAAGTFDS | not detected | 0 of 3 | 0 of 9 |
| IFTLNSYGIS | VIYSDGRRTFYGDSLK | GRAAGWFDS | 11 µM | 2 of 3 | 2 of 9 |
| VFTLNSYGLS | VIYSDGRRTFYGDSVK | GRAAGTFHS | 36 µM | 1 of 3 | 6 of 9 |
| KFTLNSSGIS | KIYSDGRRTFYGDSVK | GRAAGTFDS | 110 µM | 3 of 3 | 8 of 9 |
| SYTLNSYGMS | VIYSDGRRTFYGDSVK | GRAAGTFDS | 7.1 µM | 3 of 3 | 0 of 9 |
| CFTLNQYGIS | VIYSDGRRTFYGDSVK | GRAAGTFDS | 14 µM | 1 of 3 | 0 of 9 |
| RFTLNSYGIS | VIYSDGRRTFHHDSVK | GRAAGTFDS | 1.7 µM | 3 of 3 | 2 of 9 |
| AFTLNSYGIS | VIYSDIRRTFFGDSVK | GRAAGTFDS | 13 µM | 2 of 3 | 2 of 9 |
| IFTLNSYGIS | VIYSRGRRTFYGDSVS | GRAAGTFDS | 340 nM | 1 of 3 | 1 of 9 |
| HFTLNSDGIS | VIESDGRRTFYGDSVK | GRAAGTFDS | 14 µM | 2 of 3 | 3 of 9 |
| KFTLYSYGIS | VMYSDGRRTFYGDSVK | GRAAGTFDS | not detected | 0 of 3 | 1 of 9 |
| WFTLNSFGIS | VIYSDGRRTFYGDSVK | GRAAGTFDL | 1.1 µM | 1 of 3 | 0 of 9 |
| AFTLNSYGIS | VEYSDDRRTFYGDSVK | GRAAGTFDS | not detected | 0 of 3 | 0 of 9 |
| NFTLNSYGSS | VIYSDGRRTFYGDSVK | GRAAGTFDS | 1.1 µM | 3 of 3 | 3 of 9 |
| HFTLNSYGIS | VIYSDGPRTFYGDSVK | GRAAGTFDS | 7.1 µM | 2 of 3 | 4 of 9 |
| TFTLNSYGIS | VIYSDGRSTFYGDSVK | GMAAGTFDS | 5.8 µM | 1 of 3 | 0 of 9 |
| KFTLNSYGDS | VIYSDGRRTFYGDSVK | LRAAGTFDS | not detected | 0 of 3 | 1 of 9 |
| EFTLNSYEIS | VIYNDGRRTFYGDSVK | GRAAGTFDS | not detected | 0 of 3 | 0 of 9 |
| KFTLNSYGIS | MIYSYGRRTFYGDSVK | GRAAGTFDS | not detected | 0 of 3 | 0 of 9 |
| TFTLNSYGIS | TIYSDGRRTFYGDSVI | GRAAGTFDS | 7.6 µM | 2 of 3 | 3 of 9 |
| MFTLNSYCIS | VIYSDGRRLFYGDSVK | GRAAGTFDS | not detected | 0 of 3 | 4 of 9 |
| TFTLNSYGIS | VIYSIGRRTFYGDSVK | GRAAMTFDS | not detected | 0 of 3 | 1 of 9 |
| CFTLNSYVIS | SIYSDGRRTFYGDSVK | GRAAGTFDS | not detected | 0 of 3 | 0 of 9 |
| LFTLNSYGIS | VIYSDGRRTFYGDSVK | GRAAGTFDS | 92 nM | 3 of 3 | 1 of 9 |

The closing 6 entries, repeated:

{"CDR-H1": "KFTLNSYGIS", "CDR-H2": "MIYSYGRRTFYGDSVK", "CDR-H3": "GRAAGTFDS", "Kd (apparent)": "not detected", "detected": "0 of 3", "signal with controls": "0 of 9"}
{"CDR-H1": "TFTLNSYGIS", "CDR-H2": "TIYSDGRRTFYGDSVI", "CDR-H3": "GRAAGTFDS", "Kd (apparent)": "7.6 µM", "detected": "2 of 3", "signal with controls": "3 of 9"}
{"CDR-H1": "MFTLNSYCIS", "CDR-H2": "VIYSDGRRLFYGDSVK", "CDR-H3": "GRAAGTFDS", "Kd (apparent)": "not detected", "detected": "0 of 3", "signal with controls": "4 of 9"}
{"CDR-H1": "TFTLNSYGIS", "CDR-H2": "VIYSIGRRTFYGDSVK", "CDR-H3": "GRAAMTFDS", "Kd (apparent)": "not detected", "detected": "0 of 3", "signal with controls": "1 of 9"}
{"CDR-H1": "CFTLNSYVIS", "CDR-H2": "SIYSDGRRTFYGDSVK", "CDR-H3": "GRAAGTFDS", "Kd (apparent)": "not detected", "detected": "0 of 3", "signal with controls": "0 of 9"}
{"CDR-H1": "LFTLNSYGIS", "CDR-H2": "VIYSDGRRTFYGDSVK", "CDR-H3": "GRAAGTFDS", "Kd (apparent)": "92 nM", "detected": "3 of 3", "signal with controls": "1 of 9"}